The source of these data is ChEMBL document CHEMBL1135556, “alpha-bromoacetophenone derivatives as neutral protein tyrosine phosphatase inhibitors: structure-Activity relationship” (Bioorg Med Chem Lett, 2002).

In experiment [1] the target is Tyrosine-protein phosphatase non-receptor type 6, SHP-1 (Homo sapiens) (UniProt P29350). In words: Dissociation constant towards SHP-1 receptor-inhibitor complex was determined using PNP as substrate.
Experiment [2] deals with T1, Tyrosine-protein phosphatase non-receptor type 6 (Homo sapiens, UniProt P29350). In words: Dissociation constant towards SHP 1 receptor-inhibitor complex was determined using PNP as substrate.
Experiment [3] has as its target T1, Tyrosine-protein phosphatase non-receptor type 6.
Experiment [4] has as its target Tyrosine-protein phosphatase non-receptor type 6, SHP-1 (Homo sapiens) (UniProt P29350). In words: First-order rate constant (K inact) for conversion of the ExI complex (SHP-1 -inhibitor complex) into the covalent adduct, EI was determined using PNP as substrate.

Consider `O=C(O)CCC(NC(=O)[C@H](CCC(=O)O)NC(=O)CNC(=O)c1ccccc1-c1ccc(C(=O)CBr)cc1)C(=O)O` (some centres undefined), for which the Ki is 9.9 µM in experiment [1] and over 200 µM in experiment [2]. Also, the values for the kinact in experiment [3] and in experiment [4] were over 0.13 min⁻¹ and 0.36 min⁻¹, respectively.

As a reminder, the Ki is the dissociation constant of the complex between target and ligand, obtained from inhibition or displacement. Read a low Ki as a stronger hold on the target. One may read the kinact as the rate constant of inactivation at saturating inhibitor.
